According to US20080287402A1, “Use of a glial attenuator to prevent amplified pain responses caused by glial priming” (published 2008):

Tested on: amplified pain resulting from glial priming
Experiment: von Frey test of referred hindpaw pain after cyclophosphamide induced cystitis in rats with prior laparotomy (glial priming)
Conditions: 50 mg/kg ibudilast p.o. 2 days prior and 5 days after laparotomy, 100 mg/kg cyclophosphamide i.p. two weeks after surgery, FIG. 1

CC(C)C(=O)c1c(C(C)C)nn2ccccc12
responses to pain in the von Frey test: behaved no differently than rats that received Vehicle instead of cyclcophosphamide
